In patent publication US20150118700:

Target: T1, α-fructosyl hexapeptide (α-fructosyl-valyl-histidyl-leucyl-threonyl-propyl-glutamic acid)
T1 chain: VHLTPE

Protein | Specific activity (U/mg), 1 mM αF6P [U/mg]
fructosyl amino acid oxidase derived from Aspergillus oryzae RIB40 (FAOAo2) (protein) MTVTKSSSILIIGAGTWGASTALHLGRRGYTNVTVLDPYTVPSAISAGNDVNKIISSGQYSNKKDEIEVNEILAEEAFKGWTTDPLFKPYYHDTGVVMSACSSAGLDRLGIRVRPEEEPDVSEVTKPEHFRQLAPAVLKGNFPGWRGYHIRSNAGWAHARNALVAAIREAEKLGVKFVTGTQGRVITLIFENNDVKGAVTADGKIWRAEQTVLCAGANAAQFLDFKDQLRPTAWTLAHIRLKPEERALYKNLPVIFNIEKGFFFEPDEERGEIKICDEHPGYTNMVKSADGHLTSLPFEKTQIPKESEARVRALLSETMPQLADRPFSFARVCWCADTANREFIIDRHPEHPSLVLGCGASGRGFKYLPSIGNLIVDAIEDKVPEKVHKLTRWSPDIAVDRKWRDTLGRFGGPNRVMDFHDVKEWTNVQNKDTAKL | 0.0022
fructosyl peptide oxidase derived from Phaeosphaeria nodorum (PnFX) (protein) MAPSRANTSVIVVGGGGTIGSSTALHLVRSGYTPSNVTVLDAYPIPSSQSAGNDLNKIMGVSLRNPVDLQLALEARQMWNEDELFKKFFHNTGRLDCAHGEKDIADLKSGYQALVDAGLDATNEWLDSEDEILKRMPLLSRDQIKGWKAIFSKDGGWLAAAKAINAVGEYLRDQGVRFGFYGAGSFKAPLLAEGVCIGVETVDGTRYYADKVVLAAGAWSPTLVELHEQCVSKAWVYGHIQLTPEEAARYKNSPVVYNGDVGFFFEPNEHGVIKVCDEFPGFTRFKMHQPFGAKAPKRISVPRSHAKHPTDTIPDASDVSIRRAIATFMPQFKNKKMFNQAMCWCTDTADAALLICEHPEWKNFVLATGDSGHSFKLLPNIGKHVVELLEGTLADDLAHAWRWRPGSGDALKSRRSAPAKDLADMPGWNHDKPRANL | 0.0091
fructosyl amino acid oxidase derived from Cryptococcus neoformans (CnFX) (protein) MPPSRASTKVIVIGGGGTLGSSTALHLLRAGYTPSNITVLDTYLIPSAQSAGNDLNKIMGIRIRNPVDKQLSLEARDMWRNDEVFKPYFHNTGRLDCAHTPESIASLRKSYEAILKAGSGLEKTHHWLSTEDEILARAPLLDRKQIKGWKAIYSEDGGWLAAAKAINSIGQVLKEKGVTFGFGSAGSFKKPLFDEDGTKAIGIETVDGTQYFADKVVLAAGAWSPTLVDLEGQCCSKAWVYAHMQLTPEEAAEYKECPVVYNSELGFFFEPNEKGVIKVCDEFPGFTRFKQHQPYGASSTKHISFPRSHAKHPTDTIPDESDASIRRAISAFLPRFKEKELFNRALCWCTDTADANLLICEHPKWKNFILATGDSGHSFKILPNIGKHVVELIEGTLAEDLAESWRWRPGSGDPLISRRAAPARDLADLPGWNHDEPSDDDMD | 0
CnFX-62D/106K/110L/113K (protein) MPPSRASTKVIVIGGGGTLGSSTALHLLRAGYTPSNITVLDTYLIPSAQSAGNDLNKIMGIDIRNPVDKQLSLEARDMWRNDEVFKPYFHNTGRLDCAHTPESIAKLRKLYEKILKAGSGLEKTHHWLSTEDEILARAPLLDRKQIKGWKAIYSEDGGWLAAAKAINSIGQVLKEKGVTFGFGSAGSFKKPLFDEDGTKAIGIETVDGTQYFADKVVLAAGAWSPTLVDLEGQCCSKAWVYAHMQLTPEEAAEYKECPVVYNSELGFFFEPNEKGVIKVCDEFPGFTRFKQHQPYGASSTKHISFPRSHAKHPTDTIPDESDASIRRAISAFLPRFKEKELFNRALCWCTDTADANLLICEHPKWKNFILATGDSGHSFKILPNIGKHVVELIEGTLAEDLAESWRWRPGSGDPLISRRAAPARDLADLPGWNHDEPSDDDMD | 0.342
